From patent US8563473B2, “Aqueous herbicidal concentrates of auxinic carboxylic acids with reduced eye irritancy” (Dow AgroSciences, LLC., priority 2010, dated 2013)

Test system: eye (cornea, iris, conjunctivae) of New Zealand albino rabbit
Test: Eye irritation testing in rabbit (OECD 405 guideline)
Settings: most sensitive animal, 21 days after application; maximum score 10

Substance: choline salt of 2,4-D [2,4-D choline]
- Eye irritation score, Conjunctivae (conjunctivitis): no or minimal conjunctivitis
